The text below walks through data of patent publication US20140200332 (published 2014).

Amino acid sequences for entries named in this document (tags omitted). Residues count along the entry.
UniProt P01375, 77-233: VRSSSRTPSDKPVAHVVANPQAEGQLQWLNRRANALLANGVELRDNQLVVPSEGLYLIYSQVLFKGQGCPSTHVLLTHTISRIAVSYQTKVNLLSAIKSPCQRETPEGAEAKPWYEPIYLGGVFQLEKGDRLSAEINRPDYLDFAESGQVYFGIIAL

The target of this assay is human TNF (human, UniProt P01375). Briefly: SPR. A general note: In SPR one partner is held on a chip, and binding of the other changes the refractive index at the surface.

B1: Remicade (infliximab) (antibody, V domains shown)
VH: EVKLEESGGGLVQPGGSMKLSCVASGFIFSNHWMNWVRQSPEKGLEWVAEIRSKSINSATHYAESVKGRFTISRDDSKSAVYLQMTDLRTEDTGVYYCSRNYYGSTYDYWGQGTTLTVSS
VL: DILLTQSPAILSVSPGERVSFSCRASQFVGSSIHWYQQRTNGSPRLLIKYASESMSGIPSRFSGSGSGTDFTLSINTVESEDIADYYCQQSHSWPFTFGSGTNLEVKR
On to B1, for which the Kd (commonly a measure of binding affinity in units of concentration) turned out to be 0.0945 nM.
